Consider three substances from US11820832B2, “Bispecific HER2 and CD3 binding molecules” (MEMORIAL SLOAN KETTERING CANCER CENTER, priority 2014, dated 2023).

Entries after “also recorded” stand apart in the source; their conditions may differ.

Series [1] concerns HCC1954 breast cancer xenografts. The experiment in a line: Xenograft, subcutaneous tumor plus intravenous effector cells. In kind it is in vivo, DKO mice. Particulars: s.c. HCC1954; i.v. PBMC once a week for 3 weeks; i.v. antibody twice a week for 3 weeks.
Series [2] deals with HCC1954 breast cancer cells mixed with PBMC. The experiment in a line: Xenograft, subcutaneous tumor plus subcutaneous effector cells. In kind it is in vivo, DKO mice. Particulars: s.c. HCC1954 mixed with PBMC; 4 or 6 injections.
The subject of a further series is U2OS osteosarcoma cells. Briefly: Cell proliferation assay (WST-8). In kind it is cell-based, human. The settings on record: 10 nM kinase inhibitors, 10 μg/mL antibodies. How it is done:
(§1) Cell proliferation was determined using an ELISA plate reader and the WST-8 kit (Dojindo technologies) following the manufacturer's instructions and using the formula: % survival rate=(Sample-Background)/(Negative control-Background). Lapatinib (MSKCC pharmacy) was ground using a mortar and pestle and suspended in DMSO as previously described. To determine statistical significance, the results were analyzed using one-way ANOVA using Prism 6.0.
(§2) For cell proliferation assays, 5,000 tumor cells were plated using RPMI-1640 supplemented with 10% FBS in a 96 well plate for 36 hours before being treated with lapatinib or the antibodies at the specified concentrations. Cell proliferation was determined using an ELISA plate reader and the WST-8 kit (Dojindo technologies) following the manufacturer's instructions and using the formula: % survival rate=(Sample-Background)/(Negative control-Background). Lapatinib (Memorial Sloan Kettering Cancer Center pharmacy) was ground using a mortar and pestle and suspended in DMSO as previously described (Chen et al., 2012, Molecular cancer therapeutics 11:660-669). To determine statistical significance, the results were analyzed using one-way ANOVA using Prism 6.0.
(§3) For tumor cell proliferation, 5,000 tumor cells were plated using RPMI-1640 supplemented with 10% fetal bovine serum (“FBS”) in a 96 well plate for 36 hours before being treated with—kinase inhibitors or the antibodies at the specified concentration. Cell proliferation was determined using the cell counting WST-8 kit (Dojindo technologies) following the manufacturer's instructions and using the formula: % survival rate=(Sample-Background)/(Negative control-Background). Lapatinib was ground using a mortar and pestle and suspended in DMSO as previously described (Chen et al., Molecular cancer therapeutics 2012; 11:660-9). To determine statistical significance, the results were analyzed using one-way ANOVA using Prism 6.0.

In a further series the test system is SCCHN cell line PCI-30. The experiment in a line: Cell proliferation assay (WST-8). In kind it is cell-based, human. Particulars: 10 nM kinase inhibitors, 10 μg/mL antibodies. The method, then:
as §1, §2, §3

The test system of series [3] is HeLa cervical carcinoma cells. The experiment in a line: Cell proliferation assay (WST-8). In kind it is cell-based, human. The settings on record: 10 nM kinase inhibitors, 10 μg/mL antibodies. How it is done: as §1, §2, §3
Series [4] concerns MCF7 breast cancer cells mixed with PBMC. Briefly: Xenograft, subcutaneous tumor plus subcutaneous effector cells. In kind it is in vivo, DKO mice. Particulars: s.c. MCF7 mixed with PBMC; antibody i.v. twice a week for 2 or 3 weeks.
Series [5] relates to HER2-positive breast carcinoma cell line, AU565. The experiment in a line: FACS binding to tumor cells. The arrangement: species or system human. The settings on record: 5 μg/mL primary antibody.
Series [6] relates to gastric cancer PDX (EK), IHC 2+. Briefly: Patient-derived xenograft, s.c. tumor plus i.v. PBMC. In kind it is in vivo, DKO mice. The settings on record: i.v. PBMC once a week for 3 weeks, 100 μg i.v. twice per week for 5 weeks.
The test system of series [7] is HER2(+) SCCHN cell line PCI-13. The experiment in a line: Blocking of HER2-BsAb T-cell cytotoxicity by trastuzumab or huOKT3. In kind it is cell-based, human. Particulars: 0.1 μg/mL HER2-BsAb with 10 μg/mL blocking antibody. How it is done: Cell cytotoxicity was assayed by ^51Cr release as previously described (Xu et al., Cancer immunology research 2015; 3:266-77), and EC50 was calculated using SigmaPlot software. Effector PBMC cells were purified from buffy coats purchased from the New York Blood Center. ATCs were first purified from human PBMC using Pan T cell isolation kit, and then activated and expanded for approximately 14 days with CD3/CD28 Dynabeads (Invitrogen) according to manufacturer's protocol.

The next series has as its system HER2-positive cells. Briefly: Blocking of HER2-BsAb induced T cell cytotoxicity. In kind it is cell-based, human. The settings on record: HER2-positive cells pre-incubated with blocking antibody. How it is done:
The ^51Cr release assay was performed with effector T cells cultured in vitro in the presence of anti-CD3 and anti-CD28 for about 14 days. All target tumor cells were harvested with 2 mM EDTA in PBS, labeled with ^51Cr (Amersham, Arlington Height, Ill.) at 100 μCi/106 cells at 37° C. for 1 h. 5000 target cells/well were mixed with 50,000 effector cells (E:T=10:1) and BsAb antibodies in 96-well polystyrene round-bottom plates (BD Biosciences) to a final volume of 250 μl/well. The plates were incubated at 37° C. for 4 h. The released ^51Cr in supernatant was counted in a γ-counter (Packed Instrument, Downers Grove, Ill.). Percentage of specific release was calculated using the formula: (experimental cpm−background cpm)/(total cpm−background cpm)×100%, where cpm represented counts per minute of ^51Cr released. Total release was assessed by lysis with 10% SDS (Sigma, St Louis, Mo.), and background release was measured in the absence of effector cells. EC50 was calculated using SigmaPlot software.
Cell cytotoxicity was assayed by ^51Cr release as previously described (Xu et al., 2015, Cancer Immunol Res 3:266-77), and EC50 was calculated using SigmaPlot software. Effector T cells were purified from human PBMC using Pan T cell isolation kit (Miltenyi Biotec), and then activated and expanded with CD3/CD28 Dynabeads (Invitrogen) according to the manufacturer's protocol.

For “HER2-C825: control BsAb lacking CD3 targeting; C825 is a murine scFv with high affinity for DOTA-metal complexes”, the tumor growth result in [1] is on record as “only modest effects”; in [2], “almost had no effect”.
cetuximab: the “sensitivity of cells in proliferation assay” value is “resistant” in the series on U2OS osteosarcoma cells, “resistant” in the series on SCCHN cell line PCI-30 and “pan-resistant” in series [3].
In the case of trastuzumab, the results for the “sensitivity of cells in proliferation assay” value (with U2OS osteosarcoma cells; with SCCHN cell line PCI-30; in [3]) were “resistant”, “resistant” and “pan-resistant”, respectively. In addition, the tumor progression entry in series [4] is recorded as “ineffective”. The “binding to AU565 by FACS” value in series [5] is “comparable binding”. The results for the tumor growth entry in series [6], in series [1] and in series [2] were “did not suppress tumor growth”, “only modest effects” and “almost had no effect”, respectively. In addition, the “blocking of HER2-BsAb mediated T-cell cytotoxicity” value in [7] was “prevented”. Besides, in the series on HER2-positive cells, the “blocking of the ability of HER2-BsAb to induce T cell cytotoxicity” value is given as “blocked; also recorded: prevented”.
